Data on 1 compound can be found in paper PMC2577155 (The Journal of neuroscience : the official journal of the …, 2008).

Sequences of proteins named here, by UniProt entry; tags and fusion partners are left off.
UniProt P08482, whole entry Y381A: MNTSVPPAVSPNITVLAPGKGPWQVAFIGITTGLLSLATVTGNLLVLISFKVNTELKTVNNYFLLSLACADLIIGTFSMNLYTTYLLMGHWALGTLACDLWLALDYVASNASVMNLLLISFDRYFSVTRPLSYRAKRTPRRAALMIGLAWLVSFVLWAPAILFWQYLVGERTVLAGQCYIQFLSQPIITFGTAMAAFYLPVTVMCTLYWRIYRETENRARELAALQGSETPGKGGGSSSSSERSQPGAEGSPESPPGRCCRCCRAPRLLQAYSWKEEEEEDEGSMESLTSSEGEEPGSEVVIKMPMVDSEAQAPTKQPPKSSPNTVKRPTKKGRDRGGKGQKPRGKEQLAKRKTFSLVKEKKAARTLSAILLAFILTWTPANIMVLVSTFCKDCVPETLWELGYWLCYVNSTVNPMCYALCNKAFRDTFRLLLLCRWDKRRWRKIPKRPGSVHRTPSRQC

In one assay the target is rM1 Y381A (Rattus norvegicus, UniProt P08482, Y381A). As to conditions: at concentrations that fully activated the wt rM1 receptor.
A further assay addresses rM1 (Rattus norvegicus, UniProt P08482). Conditions: atropine 1-10 nM (CCh) or 0.3-3.0 nM (TBPB).

Take `C[N+](C)(C)CCOC(N)=O` [CCh, carbamylcholine chloride, reference compound]: the “effect at rM1 Y381A” value on rM1 Y381A is reported as “without effect”. On rM1, the “interaction of the agonist with the orthosteric antagonist atropine” value is given as “competitively antagonized”.
